# Source: patent US20240269315A1, “DRUG CONJUGATE AND USE THEREOF” (priority 2021, published 2024)
# B1: ADC14: anti-B7H3 antibody A conjugated with CB07-Exatecan; DAR 8.0 (conjugate)
# heavy: EVQLVQSGAEVKKSGESLKISCKASGYTFTDYDINWVRQMPGKGLEWIGWIFPGDDTTKYNEKFKGQVTLSADKSTNTAYMQWSSLKASDTAMYYCARSPSFDYWGQGTLVTVSSASTKGPSVFPLAPSSKSTSGGTAALGCLVKDYFPEPVTVSWNSGALTSGVHTFPAVLQSSGLYSLSSVVTVPSSSLGTQTYICNVNHKPSNTKVDKKV[letters of human IgG1 Fc omitted]
# light: QIVLTQSPGTLSLSPGERATLSCSASSTIGFMYWYQQKPGQAPRRWIYDTSKLASGVPDRFSGSGSGTDYTLTISRLEPEDFAVYYCHQRSSYPTFGQGTKVEIKRTVAAPSVFIFPPSDEQLKSGTASVVCLLNNFYPREAKVQWKVDNALQSGNSQESVTEQDSKDSTYSLSSTLTLSKADYEKHKVYACEVTHQGLSSPVTKSFNRGEC
# B2: ADC16: anti-FRα antibody A conjugated with CB07-Exatecan; DAR 8 (conjugate)
# heavy: QVQLVQSGVEVKKPGASVKVSCKASGYSFTGYFMNWVRQAPGQGLEWIGRIHPYDGDTFYNQNFKDKATLTVDKSTTTAYMELKSLQFDDTAVYYCTRYDGSRAMDYWGQGTTVTVSSASTKGPSVFPLAPSSKSTSGGTAALGCLVKDYFPEPVTVSWNSGALTSGVHTFPAVLQSSGLYSLSSVVTVPSSSLGTQTYICNVNHKPSNTKVDKKV[letters of human IgG1 Fc omitted]
# light: EIVLTQSPATLSLSPGERATLSCKASQSVSFAGTSLMHWYQQKPGQAPRLLIYRASNLEAGVPARFSGSGSKTDFTLTISSLEPEDFAVYYCQQSREYPYTFGGGTKVEIKRTVAAPSVFIFPPSDEQLKSGTASVVCLLNNFYPREAKVQWKVDNALQSGNSQESVTEQDSKDSTYSLSSTLTLSKADYEKHKVYACEVTHQGLSSPVTKSFNRGEC
# B3: ADC15 (conjugate)
# heavy: B1 heavy
# light: B1 light
# Assays:
# [1] = tested on: B7-H3 negative cells CHO-K1-FRα; experiment: Bystander effect of ADC14, transfer of culture supernatant (CCK8); format: cell-based; settings: 3 days treatment, supernatant on CHO-K1-FRα for 4 days; FIG. 6
# [2] = tested on: B7-H3 negative cells CHO-K1; experiment: In-vitro cytotoxicity of ADC14 (CCK8); format: cell-based
# [3] = tested on: human liver cancer Hep 3B cell line; experiment: Subcutaneous xenograft model of human liver cancer Hep 3B; settings: for Mean tumor volume ± SEM (mm^3) / TGI (%): single administration, Day 25
# [4] = tested on: Ovarian Cancer OV3756 xenograft; experiment: HuPrime ovarian cancer OV3756 subcutaneous xenograft model; format: in vivo, mouse
# Excerpt: 1. Pharmacodynamic evaluation of the test drug in HuPrime® Ovarian Cancer OV3756 Subcutaneous Xenograft Female BALB/c Nude Mouse Model.
# The tumor tissues were harvested from HuPrime® Ovarian Cancer Xenograft Model OV3756 bearing mice, cuted into tumor masses with a diameter of 2-3 mm, and grafted subcutaneously in the right anterior scapula of 6-7 week old female BALB/c nude mice.
# The day of grouping was set as day 0, and the administration began on day 0.
# [5] = tested on: JEG-3 cells; experiment: Balb/c nude mice JEG-3 subcutaneous model; format: in vivo, mouse; settings: single administration; for TGI: 8th day after administrating
# Method: The 6-7 week old female BALB/c nude mice were selected, and the 1×10^6 JEG-3 cells suspending in 100 μL EMEM medium containing 50% Matrigel were grafted subcutaneously on the right side of the mice.
# After Administrating, the tumor volumes were measured twice a week.
# [6] = tested on: FRα negative A549 cells; experiment: Bystander effect of ADC16, conditioned medium cytotoxicity assay (CCK-8); format: cell-based
# Method: 3) Repeat steps 1) and 2) on the second and third day.
# 4) On the fifth day, the A549 cell density was adjusted to 40,000 cells/mL with DMEM+2% FBS medium, inoculated 100 μL per well in a 96-well plate subsequently, and placed in a Series II Water Jacketed CO2 Incubator under the condition of standing for 2 hours at 37° C. and 5% CO2. And the culture supernatant of steps 1), 2), and 3), were added with 100 μL per well. 100 μL of 3000 nM Exatecan was added in column 1 as a lethal control, 100 μL of DMEM+2% FBS medium was added in column 12 as a blank control.
# The culture condition was 37° C., 5% CO2.
# 6) The culture medium was discarded, and DMEM medium containing 10% CCK-8 was added. Placed in Series II Water Jacketed CO2 Incubator, and developed color at 37° C. in the dark for 1 hour. Then it was read on a microplate reader SpectraMax M3, and the wavelength of light absorbed was 450 nm.
# 7) Organized the data. The formula for calculating cell viability is as follows: […]
Molecule,killing effect of culture supernatant of ADC-treated B7-H3 negative cells CHO-K1-FRα on CHO-K1-FRα [1],killing effect of culture supernatant of ADC-treated B7-H3 positive cells CHO-K1-B7-H3 on CHO-K1-FRα [1],killing effect on B7-H3 negative cells (in words) [2],Mean tumor volume ± SEM (mm^3) ([3]; 2.5 mg/kg i.v.),TGI (%) ([3]; 2.5 mg/kg i.v.),Mean tumor volume ± SEM (mm^3) ([3]; 5 mg/kg i.v.),TGI (%) ([3]; 5 mg/kg i.v.),"growth inhibition effect on Hep 3B tumor (in words) ([3]; 2.5 and 5 mg/kg, FIG. 14)","TGI (%) ([4]; 2.5 mg/kg i.v., single administration, Day 28)","Mean tumor volume (Day 28) ([4]; 2.5 mg/kg i.v., single administration, mean ± standard error) [mm^3]","inhibition of tumor growth (in words) ([4]; ADC17 5 mg/kg, ADC16 2.5 mg/kg, FIG. 15)",TGI ([5]; 2.5 mg/kg i.v.) [%],TGI ([5]; 5 mg/kg i.v.) [%],"tumor inhibitory effect (in words) ([5]; 2.5 and 5 mg/kg i.v., 28 days, FIG. 16)",direct killing effect on A549 cells ([6]; FRα negative A549 cells),"effect of conditioned medium of ADC-treated JEG-3 cells on viability of A549 cells ([6]; JEG-3 treated 2, 3, 4 days, supernatant on A549 for 3 days, FIG. 7)"
B1,no significant killing effect,significant killing effect,no significant killing effect,139 ± 58,93.86,30 ± 10,98.66,very strong growth inhibition effect on Hep 3B tumor in a dose-dependent manner,,,,,,,,
B2,,,,,,,,,86.81,277.59 ± 68.82,significantly inhibit tumor growth,98.98,100.00,significant tumor inhibitory effect in a dose-dependent manner; also recorded: complete the tumor regression and maintained it to the end of the experiment,basically has no killing effect,viability of A549 cells decreased significantly; also recorded: significant killing effect on A549 cells
B3,,,,,,858 ± 112,62.02,,,,,,,,,

# “Also recorded” adds a separate entry of the source.
